In ChEMBL document CHEMBL1147236, “Semiplenamides A-G, fatty acid amides from a Papua New Guinea collection of the marine cyanobacterium Lyngbya semiplena” (J Nat Prod, 2003) one finds Ki data, which are given here for 1 molecule.

Sequences of proteins named here, by UniProt entry; tags and fusion partners are left off.
UniProt P20272, whole entry: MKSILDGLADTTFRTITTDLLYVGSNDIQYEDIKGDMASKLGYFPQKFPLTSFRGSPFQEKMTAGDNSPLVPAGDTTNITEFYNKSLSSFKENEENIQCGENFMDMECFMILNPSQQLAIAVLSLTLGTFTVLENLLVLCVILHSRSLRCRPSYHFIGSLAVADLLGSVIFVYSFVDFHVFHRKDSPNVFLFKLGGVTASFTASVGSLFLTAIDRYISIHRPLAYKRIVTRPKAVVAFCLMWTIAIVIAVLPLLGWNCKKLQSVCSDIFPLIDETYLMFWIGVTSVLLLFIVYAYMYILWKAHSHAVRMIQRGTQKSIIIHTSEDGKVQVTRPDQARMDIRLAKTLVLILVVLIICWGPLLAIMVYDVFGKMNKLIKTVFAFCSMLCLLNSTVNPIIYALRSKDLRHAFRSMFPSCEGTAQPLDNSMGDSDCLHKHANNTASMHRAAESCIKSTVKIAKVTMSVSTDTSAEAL

This experiment deals with Cannabinoid receptor 1 (Rattus norvegicus, UniProt P20272). Put plainly: Displacement of [3H]SR141716A from CB1 receptor in CD rat brain membranes. In kind it is cell membranes, Membrane. Background: Displacement assays read how much labelled ligand stays bound in the presence of the test substance.

What is called Ki is a measure of affinity in units of concentration, obtained from inhibition or displacement. Read a high Ki as weaker binding. `CCCCC/C=C\C/C=C\C/C=C\C/C=C\CCCC(=O)NCCO` [ANANDAMIDE] returned a Ki of 400 nM.
